Target: Rat recombinant PDE10A (rPDE10A2) (Rattus norvegicus, UniProt Q9QYJ6)
Test: In vitro assay PDE10A (SPA, 3H-cAMP)
Assay type: biochemical
Details: -log IC50 expressed in mol/L; rPDE10A2, 60 nM cAMP

Chains of the proteins cited; added tags and fusions are not shown.
UniProt Q9QYJ6, whole entry: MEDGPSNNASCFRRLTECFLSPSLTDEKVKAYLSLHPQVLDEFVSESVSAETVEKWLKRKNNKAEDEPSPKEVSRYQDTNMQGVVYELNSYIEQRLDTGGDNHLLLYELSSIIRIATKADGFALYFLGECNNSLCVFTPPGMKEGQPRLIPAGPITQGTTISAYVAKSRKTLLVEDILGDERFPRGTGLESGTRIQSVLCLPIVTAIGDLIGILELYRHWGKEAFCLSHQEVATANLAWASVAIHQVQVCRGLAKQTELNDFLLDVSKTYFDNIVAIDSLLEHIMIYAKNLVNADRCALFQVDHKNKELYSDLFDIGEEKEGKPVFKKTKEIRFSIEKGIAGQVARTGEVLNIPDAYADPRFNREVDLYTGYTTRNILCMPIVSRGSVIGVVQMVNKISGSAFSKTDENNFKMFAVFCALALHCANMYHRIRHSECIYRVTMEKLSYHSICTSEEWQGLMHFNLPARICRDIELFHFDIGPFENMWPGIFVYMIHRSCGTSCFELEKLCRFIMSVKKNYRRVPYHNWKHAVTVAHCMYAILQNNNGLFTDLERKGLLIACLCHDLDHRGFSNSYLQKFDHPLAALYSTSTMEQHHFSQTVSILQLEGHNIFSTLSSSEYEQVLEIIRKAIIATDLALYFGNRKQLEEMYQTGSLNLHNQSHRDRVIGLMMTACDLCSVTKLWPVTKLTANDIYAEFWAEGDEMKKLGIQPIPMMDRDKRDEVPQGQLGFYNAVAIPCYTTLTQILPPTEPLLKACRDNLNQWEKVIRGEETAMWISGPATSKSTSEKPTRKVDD

- PIC50 PDE10: 5.9
Structure (SMILES): Cc1nc2ccc(C(=O)NCc3ccccc3)cc2n2c(-c3ccccc3)nnc12 [Compound B-9, N-Benzyl-4-methyl-1-phenyl[1,2,4]triazolo[4,3-a]quinoxaline-8-carboxamide]
